The values below come from PMC10907714.

In this test the target is human EGFR-WT (human) (UniProt P00533).

In turn, “human recombinant Epidermal Growth Factor (EGF) (ligand)” yielded an EC50 of hEGF for recruitment of RlucII-SH2(SHIP1) to the plasma membrane (ebBRET with rGFP-CAAX), HEK293 cells with EGFR-WT, 10 min of 0.21 nM.
